Laboratory results published in ChEMBL document CHEMBL1135401, “Pharmacophore mapping of a series of 2,4-diamino-5-deazapteridine inhibitors of Mycobacterium avium complex dihydrofolate reductase” (J Med Chem, 2002).

Molecular target: T1, Dihydrofolate reductase (Mycobacterium avium, UniProt O30463)
T1 sequence (O30463 whole entry): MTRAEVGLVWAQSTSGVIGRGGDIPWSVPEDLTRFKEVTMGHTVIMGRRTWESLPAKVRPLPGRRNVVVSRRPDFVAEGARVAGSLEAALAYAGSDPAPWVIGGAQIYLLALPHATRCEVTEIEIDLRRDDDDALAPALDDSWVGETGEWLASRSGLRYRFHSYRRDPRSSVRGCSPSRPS
Assay: Antimycobacterial activity against Mycobacterium avium complex dihydrofolate reductase (MAC DHFR)

For `COCc1c(CNc2ccc(Cl)cc2)cnc2nc(N)nc(N)c12`, the pIC50 was 5.82.

pIC50: −log10 of the molar value.
